Source: PubChem BioAssay AID651999 (Sanford-Burnham Center for Chemical Genomics, 2013)
The list shows a part of the results, in another mix than the full data. Activity calls are given as the source filed them.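 Rule for the calls: active = pattern-corrected inhibition above about 35%, with an unprinted fluorescence ratio check between 0.5 and 1.5 (limit read from the data, passing the limit was not always enough); inactive = the rest.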

Sequences of proteins named here, by UniProt entry; tags and fusion partners are left off.
UniProt Q92905, whole entry: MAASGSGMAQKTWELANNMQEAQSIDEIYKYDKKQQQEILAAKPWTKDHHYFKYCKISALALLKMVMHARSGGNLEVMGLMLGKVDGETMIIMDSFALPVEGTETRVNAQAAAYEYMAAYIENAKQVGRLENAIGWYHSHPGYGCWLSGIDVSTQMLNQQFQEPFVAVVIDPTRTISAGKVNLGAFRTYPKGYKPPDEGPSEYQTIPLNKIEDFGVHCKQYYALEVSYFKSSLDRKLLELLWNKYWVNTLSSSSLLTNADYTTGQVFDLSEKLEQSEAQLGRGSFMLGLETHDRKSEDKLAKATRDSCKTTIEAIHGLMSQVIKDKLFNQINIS

Target: COP9 signalosome complex subunit 5 (Homo sapiens) (UniProt Q92905)
Assay: inhibitors of CSN-mediated cullin deneddylation, primary screen, biochemical, fluorescence polarization, uHTS (AID 651999);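 note: 0% = enzyme with substrate and 100% = substrate without enzyme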
Settings: Purified CSN, SCF-Nedd8-OG deneddylation, at 12.5 µM, active compounds read high
Procedure, shortened: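 Schedule: reaction 90 min, room temperature / Assay system: HEK293T-derived human Csn5 enzyme / Input: Csn5 at 0.24 nM final / Measure: inhibition of Csn5 cleavage, % / Control set: substrate-only high control, full reaction low control / Technique: fluorescence polarization of the substrate / Buffer or medium: Tris/NaCl/DTT buffer, pH 7.5 / Reagent: SCFSkp2-Nedd8OG substrate at 10 nM final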

Row | SMILES | inhibition
1 | COc1cc(C(=O)NCC2(N3CCCCC3)CCCCC2)ccc1OC(F)F | inactive: 1.6%
2 | O=C(NCC1(N2CCOCC2)CCCCC1)c1cc(=O)[nH]c2ccccc12 | inactive: 5.86%
3 | CN1CCN(CCOC(=O)C(O)(c2ccccc2)c2ccccc2)CC1 | inactive: -9.7%
4 | CC(C)c1ccc(C(=O)NCC2(N3CCOCC3)CCCCC2)cc1 | inactive: 2.36%
5 | COc1ccc(NC2CCN(C(=O)OC(C)(C)C)CC2)cc1 | inactive: 8.79%
6 | CCCCn1nnnc1C(c1cccc2ccccc12)N1CCC(n2c(=O)[nH]c3ccccc32)CC1 (stereo not drawn) | inactive: 1.04%
7 | O=C(NCC1(N2CCCCC2)CCCCC1)c1cccc(C(F)(F)F)c1 | inactive: -0.01%
8 | CCN1CCC(Nc2ccc(Cl)cc2)CC1 | inactive: 1.12%
9 | O=c1[nH]c2ccccc2n1C1CCN(C(c2ccccc2OC(F)(F)F)c2nnnn2C2CCCC2)CC1 (stereo not drawn) | inactive: -6.01%
10 | N#CC1(Nc2ccccc2)CCN(CCc2ccccc2)CC1 | inactive: 1.21%
11 | O=C(NCC1(N2CCCCC2)CCCCC1)c1cccc([N+](=O)[O-])c1 | inactive: 4.8%
12 | CSc1ccc(C(=O)NCC2(N3CCOCC3)CCCCC2)cc1 | inactive: 0.73%
13 | CC(C)(C)n1nnnc1C(c1ccccc1OC(F)(F)F)N1CCC(n2c(=O)[nH]c3ccccc32)CC1 (stereo not drawn) | inactive: -3.27%
14 | O=C(NCC1(N2CCCCC2)CCCCC1)c1ccc(OC(F)F)cc1 | inactive: -2.92%
15 | COc1ccc(C(c2nnnn2C2CCCC2)N2CCC(n3c(=O)[nH]c4ccccc43)CC2)cc1 (stereo not drawn) | inactive: 3.7%
16 | Cc1ccc(C(=O)NCC2(N(C)C)CCCCC2)o1 | inactive: -2.81%
17 | CCCOc1ccc(C(=O)NCC2(N(C)C)CCCCC2)cc1OC | inactive: 0.56%
18 | CN1CCC(Nc2cccc(F)c2)CC1 | inactive: -2.85%
19 | O=C(NCC1(N2CCCCC2)CCCCC1)c1cncc(Br)c1 | inactive: -2.66%
20 | COc1cc(OC)c(C(=O)NCC2(N(C)C)CCCCC2)cc1OC | inactive: 0.74%
21 | O=C(NCC1(N2CCOCC2)CCCCC1)c1cc(F)c(F)cc1Cl | inactive: -4%
22 | CCC(c1nnnn1C(C)(C)C)N1CCC(n2c(=O)[nH]c3ccccc32)CC1 (stereo not drawn) | inactive: -0.81%

Row | SMILES | inhibition
23 | CCCCn1nnnc1C(c1ccnc2ccccc12)N1CCC(n2c(=O)[nH]c3ccccc32)CC1 (stereo not drawn) | inactive: -5.43%
24 | CCCCn1nnnc1C(c1ccccc1OC(F)(F)F)N1CCC(n2c(=O)[nH]c3ccccc32)CC1 (stereo not drawn) | inactive: -1.87%
25 | CC(C)c1ccc(NC2CCN(C(=O)OC(C)(C)C)CC2)cc1 | inactive: -3.33%
26 | COc1ccc(CN(CCCl)CCCl)cc1Cl | inactive: -4.82%
27 | CN(C)c1cccc(C(=O)NCC2(N3CCCCC3)CCCCC2)c1 | inactive: 3.28%
28 | O=C(NCC1(N2CCCCC2)CCCCC1)c1ccc(Cl)s1 | inactive: 3.9%
29 | N#CC1(Nc2ccccc2)CCN(Cc2ccccc2)CC1 | inactive: 2.06%
30 | O=C(OC1CN2CCC1CC2)C1c2ccccc2Oc2ccccc21 (stereo not drawn) | inactive: -7.31%
31 | O=c1[nH]c2ccccc2n1C1CCN(C(c2cc3ccccc3o2)c2nnnn2C2CCCCC2)CC1 (stereo not drawn) | inactive: 2.88%
32 | COc1ccc(Cl)cc1C(=O)NCC1(N2CCOCC2)CCCCC1 | inactive: -5.2%
33 | CCOC(=O)N1CCC(Nc2ccc(OC)cc2)CC1 | inactive: -0.72%
34 | CCCCn1nnnc1C(c1ccc(OC)cc1)N1CCC(n2c(=O)[nH]c3ccccc32)CC1 (stereo not drawn) | inactive: -2.7%
35 | O=C(NCC1(N2CCCCC2)CCCCC1)c1ccc(Cl)nc1 | inactive: 1.62%
36 | O=c1[nH]c2ccccc2n1C1CCN(C(c2ccccc2OC(F)(F)F)c2nnnn2C2CCCCC2)CC1 (stereo not drawn) | inactive: 0.64%
37 | Cc1cc(C)cc(N(C(=O)c2ccccc2)C2CCN(C(=O)OC(C)(C)C)CC2)c1 | inactive: 1.13%
38 | O=C(NCC1(N2CCOCC2)CCCCC1)c1cc2ccccc2o1 | inactive: 3.82%
39 | CSc1ccccc1C(=O)NCC1(N2CCCCC2)CCCCC1 | inactive: 4.42%
40 | Cc1cccc(NC2(C#N)CCN(Cc3ccccc3)CC2)c1 | inactive: -4.27%
41 | COc1ccc(C(=O)NCC2(N3CCCCC3)CCCCC2)cc1 | inactive: 4.14%
42 | CC(C)(C)OC(=O)N1CCC(N(C(=O)c2ccccc2)c2ccc(F)cc2)CC1 | inactive: 8.64%
43 | COc1ccc(C(=O)NCC2(N3CCCCC3)CCCCC2)c(OC)c1OC | inactive: 4.1%
44 | CCC(c1nnnn1C1CCCC1)N1CCC(n2c(=O)[nH]c3ccccc32)CC1 (stereo not drawn) | inactive: -0.77%

Row | SMILES | inhibition
45 | O=C(NCC1(N2CCCCC2)CCCCC1)c1ccc(=O)[nH]c1 | inactive: 3.91%
46 | O=C(NCC1(N2CCCCC2)CCCCC1)c1cccs1 | inactive: 5.46%
47 | CCCCn1nnnc1C(CC)N1CCC(n2c(=O)[nH]c3ccccc32)CC1 (stereo not drawn) | inactive: 4.62%
48 | CCCCn1nnnc1C(c1cccs1)N1CCC(n2c(=O)[nH]c3ccccc32)CC1 (stereo not drawn) | inactive: 12.5%
49 | CCOC(=O)N1CCC(Nc2cccc(C)c2)CC1 | inactive: 1.53%
50 | COc1cc(C(=O)NCC2(N(C)C)CCCCC2)ccc1OC(F)F | inactive: 0.44%
51 | O=c1[nH]c2ccccc2n1C1CCN(C(c2cccc3ccccc23)c2nnnn2C2CCCC2)CC1 (stereo not drawn) | active: 133%
52 | O=c1[nH]c2ccccc2n1C1CCN(C(c2ccccc2)c2nnnn2C2CCCCC2)CC1 (stereo not drawn) | inactive: -2.19%
53 | CCCCn1nnnc1C(c1cc2ccccc2o1)N1CCC(n2c(=O)[nH]c3ccccc32)CC1 (stereo not drawn) | inactive: 1.18%
54 | O=P1(N(CCCl)CCCl)SCCCS1 | inactive: -2.18%
55 | CCCCOc1ccc(C(=O)NCC2(N3CCOCC3)CCCCC2)cc1 | inactive: 0.02%
56 | O=C(NCC1(N2CCCCC2)CCCCC1)c1ccc(F)cc1 | inactive: 1.51%
57 | COc1ccc(NC2CCN(CCc3ccccc3)CC2)c(OC)c1 | inactive: -1.42%
58 | CCOC(=O)N1CCC(Nc2ccc(F)cc2)CC1 | inactive: -4.04%
59 | CC(C)(C)n1nnnc1C(c1ccccc1)N1CCC(n2c(=O)[nH]c3ccccc32)CC1 (stereo not drawn) | inactive: -2.98%
60 | O=C1CCN(Cc2ccccc2)CC1 | inactive: 5.01%
61 | CCOc1ccc(C)cc1CN(CCCl)CCCl | inactive: 0.01%
62 | O=C(NCC1(N2CCCCC2)CCCCC1)c1ccco1 | inactive: -4.39%
63 | CN(C)c1ccc(C(=O)NCC2(N3CCCCC3)CCCCC2)cc1 | inactive: 3.52%
64 | Cn1c(=O)[nH]cc(N(CCCl)CCCl)c1=O | inactive: 6.93%
65 | Cc1ccccc1NC1(C#N)CCN(Cc2ccccc2)CC1 | inactive: 0.01%
66 | CCN1CCC(Nc2cccc(F)c2)CC1 | inactive: 0.59%

Row | SMILES | inhibition
67 | COc1ccc(C(c2nnnn2C2CCCCC2)N2CCC(n3c(=O)[nH]c4ccccc43)CC2)cc1 (stereo not drawn) | inactive: -1.73%
68 | CC(C)(C)n1nnnc1C(c1ccnc2ccccc12)N1CCC(n2c(=O)[nH]c3ccccc32)CC1 (stereo not drawn) | inactive: -1.87%
69 | Cc1ccc(C(=O)NCC2(N3CCCCC3)CCCCC2)o1 | inactive: -1.59%
70 | Fc1ccccc1NC1CCN(Cc2ccccc2)CC1 | inactive: 2.25%
71 | Cc1ccc(NC2(C#N)CCN(Cc3ccccc3)CC2)cc1 | inactive: -3.75%
72 | COc1cccc(C(c2nnnn2C2CCCCC2)N2CCC(n3c(=O)[nH]c4ccccc43)CC2)c1OC (stereo not drawn) | inactive: -1.9%
73 | CC(=O)N(c1ccccc1)C1CCNCC1 | inactive: 0%
74 | CCC(c1nnnn1C1CCCCC1)N1CCC(n2c(=O)[nH]c3ccccc32)CC1 (stereo not drawn) | inactive: 2.39%
75 | COc1cc(OC)cc(C(=O)NCC2(N3CCCCC3)CCCCC2)c1 | inactive: 2.05%
76 | O=c1[nH]c2ccccc2n1C1CCN(C(c2ccnc3ccccc23)c2nnnn2C2CCCCC2)CC1 (stereo not drawn) | inactive: -5.76%
77 | CN1CCC(Nc2ccc(Cl)cc2)CC1 | inactive: -2.85%
78 | COc1cc(OC)cc(C(=O)NCC2(N3CCOCC3)CCCCC2)c1 | inactive: -0.94%
79 | COc1cccc(C(c2nnnn2C2CCCC2)N2CCC(n3c(=O)[nH]c4ccccc43)CC2)c1OC (stereo not drawn) | inactive: 2.92%
80 | COc1cccc(C(=O)N(c2cc(C)cc(C)c2)C2CCN(C(=O)OC(C)(C)C)CC2)c1 | inactive: 3.96%
81 | CCC(CO)(C(=O)OC1CN2CCC1CC2)c1ccccc1 (stereo not drawn) | inactive: -0.2%
82 | CC(C)(C)OC(=O)N1CCC(Nc2ccccc2)CC1 | inactive: 3.67%
83 | O=C(O)C1(Nc2ccccc2)CCN(Cc2ccccc2)CC1 | inactive: 0.39%
84 | NN(c1ccccc1)C1CCN(CCc2ccccc2)CC1 | inactive: 4.63%
85 | O=c1[nH]c2ccccc2n1C1CCN(C(c2cc3ccccc3o2)c2nnnn2C2CCCC2)CC1 (stereo not drawn) | inactive: 1.97%
86 | CCCOc1ccc(C(=O)NCC2(N(C)C)CCCCC2)cc1 | inactive: -0.96%
87 | CCOc1ncccc1C(=O)NCC1(N2CCOCC2)CCCCC1 | inactive: -3.71%
88 | CN1CCC(Nc2ccc(F)c(Cl)c2)CC1 | inactive: -2.85%

Row | SMILES | inhibition
89 | O=C(OC1CN2CCC1CC2)C1c2ccccc2C=Cc2ccccc21 (stereo not drawn) | inactive: -3.79%
90 | O=c1[nH]c2ccccc2n1C1CCN(C(c2cccs2)c2nnnn2C2CCCC2)CC1 (stereo not drawn) | inactive: 5.36%
91 | CCCCn1nnnc1C(c1cccc(OC)c1OC)N1CCC(n2c(=O)[nH]c3ccccc32)CC1 (stereo not drawn) | inactive: -0.48%
92 | CCOC(=O)N1CCC(Nc2ccc(C)cc2)CC1 | inactive: 5.34%
93 | COc1cccc(C(c2nnnn2C(C)(C)C)N2CCC(n3c(=O)[nH]c4ccccc43)CC2)c1OC (stereo not drawn) | inactive: -3.55%
94 | N/C(=N\O)c1c(N)no[n+]1[O-] | inactive: 3.34%
95 | O=c1[nH]c2ccccc2n1C1CCN(C(c2cccs2)c2nnnn2C2CCCCC2)CC1 (stereo not drawn) | inactive: 1.89%
96 | COc1ccc(C(=O)NCC2(N3CCOCC3)CCCCC2)cc1OC | inactive: -0.43%
97 | O=c1[nH]c2ccccc2n1C1CCN(C(c2ccnc3ccccc23)c2nnnn2C2CCCC2)CC1 (stereo not drawn) | inactive: 4.84%
98 | CCCCn1nnnc1C(c1ccccc1)N1CCC(n2c(=O)[nH]c3ccccc32)CC1 (stereo not drawn) | inactive: -0.91%
99 | COc1cc(C(=O)NCC2(N3CCOCC3)CCCCC2)cc(OC)c1C | inactive: 0.7%
100 | O=C(NCC1(N2CCOCC2)CCCCC1)c1cc(Br)ccc1Cl | inactive: -3.85%
101 | CC(C)(C)n1nnnc1C(c1cccc2ccccc12)N1CCC(n2c(=O)[nH]c3ccccc32)CC1 (stereo not drawn) | inactive: 3.01%
102 | CN(C)C1(CNC(=O)c2cccc(C#N)c2)CCCCC1 | inactive: 1.14%
103 | c1ccc(CN2CCC(Nc3ccccc3)CC2)cc1 | inactive: -2.52%
104 | Cc1cc(N(CCCl)CCCl)ccc1C=O | inactive: 0.96%
105 | CCCN1CCC(Nc2cc(OC)cc(OC)c2)CC1 | inactive: -11.6%
106 | O=c1[nH]c2ccccc2n1C1CCN(C(c2ccccc2)c2nnnn2C2CCCC2)CC1 (stereo not drawn) | inactive: 2.1%
107 | N#Cc1ccc(C(=O)NCC2(N3CCCCC3)CCCCC2)cc1 | inactive: 2.07%
108 | CC(C)(C)OC(=O)N1CCC(N(C(=O)c2ccccc2)c2ccc(Cl)cc2)CC1 | inactive: 2.81%
